In the supplement of paper PMC11537057:
Structures can show the parent of a compound that is named as a salt. ± gives the standard deviation of the averaged measurements. The highest values were mostly taken out for another list; the other results follow.

system: A549 infected with HSV-1; assay: cell number in HSV-1-infected wells relative to infected DMSO wells (H2B-RFP signal); higher = more surviving cells (uninfected or antiviral-protected wells give about 200%; low = toxicity); conditions: 10 µM; 48 h; MOI: 0.1
Procedure: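 Selleck FDA-approved library (L1300) screened in duplicate at 10 µM on A549 H2B-mRuby cells in 384-well plates, infected with HSV-1 strain 17 YFP-ICP4 at MOI 0.1 one hour before drug addition. Imaged after 2 days at 37°C. Cell growth (H2B-RFP) and infection (ICP4-YFP) are expressed as % of DMSO-treated wells. Hits: growth >90% and infection <20% of DMSO.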

SMILES	cell number in HSV-1-infected wells
CC[C@H](C)[C@H](NC(=O)[C@H](CCC(=O)O)NC(=O)C(CCC(=O)O)NC(=O)[C@H](Cc1ccccc1)NC(=O)C(CC(=O)O)NC(=O)CNC(=O)C(CC(N)=O)NC(=O)CNC(=O)CNC(=O)CNC(=O)CNC(=O)[C@@H]1CCCN1C(=O)[C@H](CCCNC(=N)N)NC(=O)[C@@H]1CCCN1C(=O)[C@@H](N)Cc1ccccc1)C(=O)N1CCC[C@H]1C(=O)N[C@@H](CCC(=O)O)C(=O)N[C@@H](CCC(=O)O)C(=O)N[C@@H](Cc1ccc(O)cc1)C(=O)N[C@@H](CC(C)C)C(=O)O (stereo partly specified) [Bivalirudin Trifluoroacetate]	114 ± 10%
